Assay [1] concerns the target D2 (Homo sapiens, UniProt P14416). The assay is described as follows: Receptor binding, D2.
Assay [2] concerns the target SERT (Homo sapiens, UniProt P31645). The assay is described as follows: Receptor binding, SERT. Conditions: for inhibition at 0.1 µM: at 100 nM.
The target in assay [3] is 5-HT2A (Homo sapiens, UniProt P28223). Nature of the assay: Receptor binding, 5-HT2A. Conditions: for inhibition at 0.1 µM: read-out: 5-HT2A maximum inhibition; for 5-HT2A maximum inhibition: 0.1 µM.
Assay [4] addresses D1 (Homo sapiens, UniProt P21728). The assay is described as follows: Receptor binding, D1. Conditions: for inhibition at 0.1 µM: read-out: D1 maximum inhibition.
Assay [5] has as its target Mu opioid receptor (Homo sapiens, UniProt P35372). The assay is described as follows: Receptor binding, Mu opioid receptor. Conditions: for inhibition at 0.1 µM: at 100 nM, read-out: Mu maximum inhibition.
Setting [6] is: at 100 nM, read-out: D2 maximum inhibition.
Setting [7] is: read-out: SERT maximum inhibition.
Where [8] appears, read: at 200 nM, read-out: SERT maximum inhibition.
Setting [9] is: read-out: D2 maximum inhibition.
Setting [10] is: (footnote c), read-out: SERT maximum inhibition.

pKi: −log10 of the molar value. Where two headings read alike, the source gives them in different places.

The results in this text go back to patent US20250320214A1, “ORGANIC COMPOUNDS” (INTRA-CELLULAR THERAPIES, INC., priority 2022, published 2025).

`CCCCN1CC[C@H]2[C@@H](C1)c1cccc3c1N2CC(=O)N3` [Ex. 1, (6bR,10aS)-8-butyl-6b,7,8,9,10,10a-hexahydro-1H-pyrido[3′,4′:4,5]pyrrolo[1,2,3-de]quinoxalin-2(3H)-one]: the results for the inhibition at 0.1 µM in assay [1] (setting [6]) and in assay [3] were 15% and below 0%, respectively. In addition, the inhibition at 0.2 µM in assay [2] (setting [7]) is below 0%.

As to `O=C1CN2c3c(cccc3[C@@H]3CN(CCCO)CC[C@@H]32)N1` [Ex. 2, (6bR,10aS)-8-(3-hydroxypropyl)-6b,7,8,9,10,10a-hexahydro-1H-pyrido[3′,4′:4,5]pyrrolo[1,2,3-de]quinoxalin-2(3H)-one], the inhibition at 0.2 µM in assay [2] (setting [8]) was below 0%. Moreover, the inhibition at 0.1 µM in assay [3] is 8%.

Regarding `O=C1CN2c3c(cccc3[C@@H]3CN(CCCOc4ccccc4)CC[C@@H]32)N1` [Ex. 3, (6bR,10aS)-8-(3-phenoxypropyl)-6b,7,8,9,10,10a-hexahydro-1H-pyrido[3′,4′:4,5]-pyrrolo[1,2,3-de]quinoxalin-2(3H)-one], the inhibition at 0.1 µM in assay [1] (setting [9]) is 34%; in assay [4], 24%. For the same molecule, in assay [2] (at 50 μM (footnote a), read-out: SERT maximum inhibition), the inhibition at 50 µM was 8%. Further, the pKi in assay [3] was 8.55.

For the molecule `O=C1CN2c3c(cccc3[C@@H]3CN(CCCC(=O)c4ccc(Cl)s4)CC[C@@H]32)N1` [Ex. 4, (6bR,10aS)-8-(4-(5-chlorothiophen-2-yl)-4-oxobutyl)-6b,7,8,9,10,10a-hexahydro-1H-pyrido[3′,4′:4,5]-pyrrolo[1,2,3-de]quinoxalin-2(3H)-one], the inhibition at 0.1 µM was 41% in assay [1] (setting [6]) and 34% in assay [4] (at 100 nM). In addition, the pKi in assay [2] is 7.18; in assay [5], 8.09; in assay [3], 7.74.

Consider `O=C1CN2c3c(cccc3[C@@H]3CN(CCCOc4ccc(O)cc4)CC[C@@H]32)N1` [Ex. 6, (6bR,10aS)-8-(3-(4-hydroxyphenoxy)propyl)-6b,7,8,9,10,10a-hexahydro-1H-pyrido[3′,4′:4,5]pyrrolo[1,2,3-de]quinoxalin-2(3H)-one], for which the inhibition at 0.1 µM came to 41% in assay [1] (setting [9]), 77% in assay [3] and 0.86% in assay [4] (at 100 nM). Moreover, the inhibition at 0.2 µM in assay [2] (setting [8]) is 11%.

Consider `O=C1CN2c3c(cccc3[C@@H]3CN(CCCOc4ccc(OCc5ccccc5)cc4)CC[C@@H]32)N1` [Ex. 7, (6bR,10aS)-8-(3-(4-(benzyloxy)phenoxy)propyl)-6b,7,8,9,10,10a-hexahydro-1H-pyrido[3′,4′:4,5]-pyrrolo[1,2,3-de]quinoxalin-2(3H)-one], for which the values for the inhibition at 0.1 µM in assay [1] (setting [9]), in assay [3] and in assay [4] were 23%, 76% and 4.6%, respectively. Moreover, the inhibition at 0.2 µM in assay [2] (setting [8]) was found to be 68%.

With `NC(=O)c1cc(F)ccc1OCCCN1CC[C@H]2[C@@H](C1)c1cccc3c1N2CC(=O)N3` [Ex. 8, 5-fluoro-2-(3-((6bR,10aS)-2-oxo-2,3,6b,9,10,10a-hexahydro-1H-pyrido[3′,4′:4,5]pyrrolo[1,2,3-de]quinoxalin-8(7H)-yl)propoxy)benzamide], in assay [1] (at 100 μM (footnote b), read-out: D2 maximum inhibition), the inhibition at 100 µM was below 0%. In addition, the inhibition at 0.2 µM in assay [2] (setting [8]) was determined as 9.6%. Also, the inhibition at 0.1 µM was found to be 14% in assay [3] and 0.78% in assay [4] (at 100 nM).

For the molecule `O=C1CN2c3c(cccc3[C@@H]3CN(CCCOc4ccc(F)c(F)c4)CC[C@@H]32)N1` [Ex. 9, (6bR,10aS)-8-(3-(3,4-difluorophenoxy)propyl)-6b,7,8,9,10,10a-hexahydro-1H-pyrido[3′,4′:4,5]pyrrolo-[1,2,3-de]quinoxalin-2(3H)-one], the results for the inhibition at 0.1 µM in assay [1] (setting [9]) and in assay [4] were 7% and 15%, respectively. The inhibition at 0.2 µM in assay [2] (setting [10]) worked out at 15%. The figures for the negative logarithm of the Ki (pKi) in assay [5] and in assay [3] were 8.74 and 7.79, respectively.

With `Cc1cc(F)cc(C)c1OCCCN1CC[C@H]2[C@@H](C1)c1cccc3c1N2CC(=O)N3` [Ex. 11, (6bR,10aS)-8-(3-(4-fluoro-2,6-dimethylphenoxy)propyl)-6b,7,8,9,10,10a-hexahydro-1H-pyrido[3′,4′:4,5]-pyrrolo[1,2,3-de]quinoxalin-2(3H)-one], the inhibition at 0.1 µM in assay [1] (setting [6]) was below 0%; in assay [3], 40%; in assay [4] (at 100 nM), below 0%. For the same molecule, the inhibition at 0.2 µM in assay [2] (setting [10]) was found to be 34%.

Turning to `O=C1Nc2cccc3c2N([C@H]2CCN(CCCOc4ccc(F)cc4)C[C@@H]32)C1(F)F` [Ex. 13, (6bR,10aS)-1,1-difluoro-8-(3-(4-fluorophenoxy)propyl)-6b,7,8,9,10,10a-hexahydro-1H-pyrido[3′,4′:4,5]pyrrolo[1,2,3-de]quinoxalin-2(3H)-one], the inhibition at 0.1 µM is 7% in assay [1] (setting [6]), below 0% in assay [5], 21% in assay [3] (at 100 nM) and 24% in assay [4] (at 100 nM). Further, in assay [2] (setting [8]), the inhibition at 0.2 µM stood at 6%.

Turning to `CC(=O)Nc1cccc2c1N[C@H]1CCN(CCCOc3ccc(F)cc3)C[C@@H]21` [Ex. 14, N-((4aS,9bR)-2-(3-(4-fluorophenoxy)propyl)-2,3,4,4a,5,9b-hexahydro-1H-pyrido[4,3-b]indol-6-yl)acetamide], the inhibition at 0.1 µM worked out at 11% in assay [1] (setting [6]), 9% in assay [5], 67% in assay [3] (at 100 nM) and 25% in assay [4] (at 100 nM). For the same molecule, the inhibition at 0.2 µM in assay [2] (setting [8]) came to 4%.

For `CC(=O)Nc1cccc2c1N[C@H]1CCN(CCCC(=O)c3ccc(F)cc3)C[C@@H]21` [Ex. 15, N-((4aS,9bR)-2-(4-(4-fluorophenyl)-4-oxobutyl)-2,3,4,4a,5,9b-hexahydro-1H-pyrido[4,3-b]indol-6-yl)acetamide], the inhibition at 0.1 µM stood at 49% in assay [1] (setting [6]), 11% in assay [5], 80% in assay [3] (at 100 nM) and 45% in assay [4] (at 100 nM). Besides, the inhibition at 0.2 µM in assay [2] (setting [8]) was below 0%.

Turning to `CC(=O)Nc1cccc2c1N[C@H]1CCN(CCCC(O)c3ccc(F)cc3)C[C@@H]21` (stereo partly drawn) [Ex. 16, N-((4aS,9bR)-2-(4-(4-fluorophenyl)-4-hydroxybutyl)-2,3,4,4a,5,9b-hexahydro-1H-pyrido[4,3-b]indol-6-yl)acetamide], the inhibition at 0.1 µM in assay [1] (setting [6]), in assay [5], in assay [3] (at 100 nM) and in assay [4] (at 100 nM) was below 0% each time. The inhibition at 0.2 µM in assay [2] (setting [8]) is below 0%.

Take `Cc1cc(F)ccc1OCCCN1CC[C@H]2[C@@H](C1)c1cccc3c1N2CC(=O)N3` [Ex. 18]: the figures for the inhibition at 0.1 µM in assay [1] (setting [6]) and in assay [4] (at 100 nM) were 69% and 40%, respectively. For the same molecule, the inhibition at 0.2 µM in assay [2] (setting [8]) is 32%. The results for the pKi in assay [5] and in assay [3] were 8.54 and 9.40, respectively.

Consider `O=C1CN2c3c(cccc3[C@@H]3CN(CCCOc4ccc(F)cc4Cl)CC[C@@H]32)N1` [Ex. 19], for which the inhibition at 0.1 µM stood at 80% in assay [1] (setting [6]) and 33% in assay [4] (at 100 nM). Besides, the inhibition at 0.2 µM in assay [2] (setting [8]) is 23%. Also, the pKi is 8.52 in assay [5] and 9.22 in assay [3].

For the molecule `CCc1cc(F)ccc1OCCCN1CC[C@H]2[C@@H](C1)c1cccc3c1N2CC(=O)N3` [Ex. 20], the inhibition at 0.1 µM in assay [1] (setting [6]) was determined as 69%; in assay [4] (at 100 nM), 66%. Also, the inhibition at 0.2 µM in assay [2] (setting [8]) turned out to be 26%. Further, the pKi in assay [5] was 8.27; in assay [3], 9.52.

Take `Cc1cc(OCCCN2CC[C@H]3[C@@H](C2)c2cccc4c2N3CC(=O)N4)ccc1F` [Ex. 21]: the inhibition at 0.1 µM in assay [1] (setting [6]) is 0%; in assay [2] (setting [7]), 14%; in assay [4] (at 100 nM), below 1%. Besides, in assay [5], the pKi is 7.16. The molecule also showed a 5-HT2A maximum inhibition in assay [3] of 77%.

Regarding `O=C1CN2c3c(cccc3[C@@H]3CN(CCCOc4ccc(F)c(Cl)c4)CC[C@@H]32)N1` [Ex. 22], the results for the inhibition at 0.1 µM in assay [1] (setting [6]), in assay [2] (setting [7]) and in assay [4] (at 100 nM) were 0%, 6% and 0%, respectively. This molecule also showed a pKi in assay [5] of 7.13. The molecule also had a 5-HT2A maximum inhibition in assay [3] of 65%.

Take `N#Cc1cc(OCCCN2CC[C@H]3[C@@H](C2)c2cccc4c2N3CC(=O)N4)ccc1F` [Ex. 23]: the inhibition at 0.1 µM was determined as 0% in assay [1] (setting [6]), 13% in assay [2] (setting [7]) and 0% in assay [4] (at 100 nM). The molecule further had a negative logarithm of the Ki (pKi) in assay [5] of 7.19. Further, the 5-HT2A maximum inhibition in assay [3] amounted to 35%.

As for `N#Cc1cc(F)ccc1OCCCN1CC[C@H]2[C@@H](C1)c1cccc3c1N2CC(=O)N3` [Ex. 25], the pKi in assay [1] is 7.37; in assay [2] it was 7.46; in assay [5], 8.08; in assay [3] it was 8.42; in assay [4] it was 7.13.

With `O=C1CN2c3c(cccc3[C@@H]3CN(CCCOc4ccc(F)cc4)CC[C@@H]32)N1` [Fm. A, (6bR,10aS)-8-(3-(4-fluorophenoxy)propyl)-6b,7,8,9,10,10a-hexahydro-1H-pyrido[3′,4′:4,5]pyrrolo[1,2,3-de]quinoxalin-2(3H)-one, reference compound], the inhibition at 0.1 µM in assay [4] is 44%.

For `O=C1CN2c3c(cccc3[C@@H]3CN(CCCS(=O)(=O)c4ccc(F)cc4)CC[C@@H]32)N1` [compound 12, (6bR,10aS)-8-(3-((4-fluorophenyl)sulfonyl)propyl)-6b,7,8,9,10,10a-hexahydro-1H-pyrido[3′,4′:4,5]pyrrolo-[1,2,3-de]quinoxalin-2(3H)-one], in assay [2] (setting [8]), the inhibition at 0.2 µM was below 0%. For the same molecule, the inhibition at 0.1 µM in assay [5] was below 0%; in assay [3], 33%.

For orientation: inhibition means the change of the read-out against control, counted positive when it falls. A word on the pKi: it is the negative decadic logarithm of the Ki, by convention in mol/L. Higher therefore signals a small Ki.
